{
  "sequences": {"note": "The chains behind the UniProt entries cited, without tags or fusion partners.", "UniProt P07550, whole entry": "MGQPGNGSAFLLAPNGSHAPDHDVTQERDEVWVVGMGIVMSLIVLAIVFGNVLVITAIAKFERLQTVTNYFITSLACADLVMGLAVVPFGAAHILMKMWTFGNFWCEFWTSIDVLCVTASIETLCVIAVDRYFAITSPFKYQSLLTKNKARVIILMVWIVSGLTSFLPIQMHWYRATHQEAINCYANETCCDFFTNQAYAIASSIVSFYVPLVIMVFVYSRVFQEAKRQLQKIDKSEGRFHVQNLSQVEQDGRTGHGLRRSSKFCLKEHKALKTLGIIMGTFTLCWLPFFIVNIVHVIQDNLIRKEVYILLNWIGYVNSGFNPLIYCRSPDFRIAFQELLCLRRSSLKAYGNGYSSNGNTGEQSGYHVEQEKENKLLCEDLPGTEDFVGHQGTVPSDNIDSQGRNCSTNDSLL"},
  "source": "ChEMBL document CHEMBL1143696",
  "about": "“Comparative molecular field analysis of the binding of the stereoisomers of fenoterol and fenoterol derivatives to the beta2 adrenergic receptor” (J Med Chem, 2007)",
  "data": [
    {"molecular_target": "Beta-2 adrenergic receptor (Homo sapiens, UniProt P07550)", "assay": "biochemical", "units": {"Ki": "µM"}, "values": [
      {"smiles": "CCCC[C@@H](C)NC[C@H](O)c1cc(O)cc(O)c1", "Ki": 9.28},
      {"smiles": "CCCC[C@H](C)NC[C@H](O)c1cc(O)cc(O)c1", "note": "(racemic)", "Ki": 31.4},
      {"smiles": "CCCC[C@H](C)NC[C@@H](O)c1cc(O)cc(O)c1", "Ki": 56.4}
    ]}
  ]
}
